Assay results: ChEMBL document CHEMBL1157817, “2-aminoimidazole amino acids as inhibitors of the binuclear manganese metalloenzyme human arginase I” (J Med Chem, 2010)

Target: T1, Arginase-1 (Homo sapiens, UniProt P05089)
T1 sequence (P05089 whole entry): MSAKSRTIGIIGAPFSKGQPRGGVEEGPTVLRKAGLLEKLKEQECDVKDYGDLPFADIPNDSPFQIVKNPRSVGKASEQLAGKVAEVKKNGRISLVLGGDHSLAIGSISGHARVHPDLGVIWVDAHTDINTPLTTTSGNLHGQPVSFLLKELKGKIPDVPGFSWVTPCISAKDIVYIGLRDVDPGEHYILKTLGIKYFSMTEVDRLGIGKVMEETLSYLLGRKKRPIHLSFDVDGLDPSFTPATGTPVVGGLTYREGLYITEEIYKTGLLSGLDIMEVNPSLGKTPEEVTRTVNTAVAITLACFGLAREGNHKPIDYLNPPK
Test: Inhibition of human recombinant full length arginase 1 expressed in Escherichia coli BL21(DE3) by fixed point assay
Method in brief: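 Fixed-point assay with [14C-guanidino]-L-arginine. […] Inhibition mode from Lineweaver-Burk plots at several inhibitor concentrations.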

Nc1ncc(CC[C@H](N)C(=O)O)[nH]1
Ki: 3000 µM

Nc1ncc(C[C@H](N)C(=O)O)[nH]1
Ki: 300 µM
